Experimental data reported in ChEMBL document CHEMBL5465560, “Selectivity Literature for EUbOPEN Chemogenomic Library” (2024).

Sequences of proteins named here, by UniProt entry; tags and fusion partners are left off. A change or cut given only in a name is not applied to a line headed by its entry.
UniProt P49761: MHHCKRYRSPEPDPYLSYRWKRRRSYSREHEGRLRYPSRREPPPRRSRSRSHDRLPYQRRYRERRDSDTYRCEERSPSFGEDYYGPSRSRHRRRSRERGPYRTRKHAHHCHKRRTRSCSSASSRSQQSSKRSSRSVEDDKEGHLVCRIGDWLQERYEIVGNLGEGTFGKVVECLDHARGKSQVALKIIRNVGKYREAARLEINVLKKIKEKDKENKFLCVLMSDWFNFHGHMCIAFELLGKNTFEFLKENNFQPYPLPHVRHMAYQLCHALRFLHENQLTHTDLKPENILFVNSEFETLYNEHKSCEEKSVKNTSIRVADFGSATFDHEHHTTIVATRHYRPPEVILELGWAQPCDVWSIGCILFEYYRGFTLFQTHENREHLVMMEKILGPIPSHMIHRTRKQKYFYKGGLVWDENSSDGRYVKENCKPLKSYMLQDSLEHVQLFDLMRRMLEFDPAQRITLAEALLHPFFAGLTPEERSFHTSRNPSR
UniProt P48730: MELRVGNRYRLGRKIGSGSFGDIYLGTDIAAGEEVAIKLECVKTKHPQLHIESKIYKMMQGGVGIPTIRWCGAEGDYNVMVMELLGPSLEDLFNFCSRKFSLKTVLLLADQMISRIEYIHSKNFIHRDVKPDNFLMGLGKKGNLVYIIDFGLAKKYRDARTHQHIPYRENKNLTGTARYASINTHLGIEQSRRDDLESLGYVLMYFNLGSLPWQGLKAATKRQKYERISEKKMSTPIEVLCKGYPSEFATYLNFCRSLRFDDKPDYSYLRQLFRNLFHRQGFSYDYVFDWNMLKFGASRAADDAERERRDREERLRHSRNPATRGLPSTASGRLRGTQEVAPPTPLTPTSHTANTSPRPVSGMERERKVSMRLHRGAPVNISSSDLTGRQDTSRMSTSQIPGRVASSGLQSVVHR

Columns and labels:
[1] = biological target: Dual specificity protein kinase CLK3 (Homo sapiens, UniProt P49761); assay: Selectivity interaction (Eurofins binding assay) EUB0000008b CLK3
[2] = biological target: Casein kinase I isoform delta (Homo sapiens, UniProt P48730); assay: Selectivity interaction (Enzymatic assay) EUB0001199aCl CSNK1D

| SMILES | IC50 [1] [µM] | IC50 [2] [nM] |
| --- | --- | --- |
| Cn1cc(-c2ccc3occ(-c4cccc(-c5ccncc5)c4)c3n2)cn1 | > 3 | – |
| CN1Cc2nccc(-c3cn(C)nc3-c3ccc(F)cc3)c2C1=O | – | 4 |
